From patent US20150148256A1, “BIOLUMINESCENCE IMAGING-BASED SCREENING ASSAY AND INHIBITORS OF ABCG2” (THE JOHNS HOPKINS UNIVERSITY, priority 2008, published 2015) come the findings set out here.

Sequences of proteins named here, by UniProt entry; tags and fusion partners are left off. A change or cut given only in a name is not applied to a line headed by its entry.
UniProt Q9UNQ0: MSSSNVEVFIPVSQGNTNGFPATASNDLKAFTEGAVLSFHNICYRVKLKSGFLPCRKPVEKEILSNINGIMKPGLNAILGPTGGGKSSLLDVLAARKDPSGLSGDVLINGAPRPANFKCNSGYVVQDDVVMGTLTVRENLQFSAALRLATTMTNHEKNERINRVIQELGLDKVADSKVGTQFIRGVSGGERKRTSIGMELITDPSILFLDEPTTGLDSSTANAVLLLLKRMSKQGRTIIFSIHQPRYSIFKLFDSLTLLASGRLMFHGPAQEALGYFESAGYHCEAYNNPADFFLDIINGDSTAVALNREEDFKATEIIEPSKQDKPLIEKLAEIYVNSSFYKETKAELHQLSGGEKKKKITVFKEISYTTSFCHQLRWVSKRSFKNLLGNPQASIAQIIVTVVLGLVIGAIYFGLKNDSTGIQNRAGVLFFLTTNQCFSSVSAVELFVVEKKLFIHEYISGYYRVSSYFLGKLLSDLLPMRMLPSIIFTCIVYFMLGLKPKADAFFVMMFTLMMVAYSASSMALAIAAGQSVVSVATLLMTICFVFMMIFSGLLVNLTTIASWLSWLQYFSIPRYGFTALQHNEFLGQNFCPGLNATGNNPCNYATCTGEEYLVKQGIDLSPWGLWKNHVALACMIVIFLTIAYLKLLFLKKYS

This series concerns the target ABCG2 (Homo sapiens, UniProt Q9UNQ0).

Take `C[C@]12CC[C@H](O)CC1=CC[C@@H]1[C@@H]2CC[C@]2(C)C(=O)CC[C@@H]12` [prasterone (DHEA), prasterone]: the “Fold (BLI enhancement, S/B ratio over control)” value is recorded as 2.5 fold.
